According to patent US7247705B2, “Proteins having glucose transporter activity” (Takeda Pharmaceutical Company Limited, priority 2000, dated 2007):

Columns and labels:
hSGLT2 [1] = target: T1, hSGLT2 (Homo sapiens, UniProt P31639); assay: α-methyl glucose uptake in COS7 cells carrying pME18S-hSGLT2; type: cell-based; conditions: NaCl + 100 μM or 1 mM phlorizin, one-hour incubation, FIG. 12
T1 construct: expressed in transfected cells; host or cells: COS7 cells, transient, FuGENE 6
T1 sequence (P31639 1-672): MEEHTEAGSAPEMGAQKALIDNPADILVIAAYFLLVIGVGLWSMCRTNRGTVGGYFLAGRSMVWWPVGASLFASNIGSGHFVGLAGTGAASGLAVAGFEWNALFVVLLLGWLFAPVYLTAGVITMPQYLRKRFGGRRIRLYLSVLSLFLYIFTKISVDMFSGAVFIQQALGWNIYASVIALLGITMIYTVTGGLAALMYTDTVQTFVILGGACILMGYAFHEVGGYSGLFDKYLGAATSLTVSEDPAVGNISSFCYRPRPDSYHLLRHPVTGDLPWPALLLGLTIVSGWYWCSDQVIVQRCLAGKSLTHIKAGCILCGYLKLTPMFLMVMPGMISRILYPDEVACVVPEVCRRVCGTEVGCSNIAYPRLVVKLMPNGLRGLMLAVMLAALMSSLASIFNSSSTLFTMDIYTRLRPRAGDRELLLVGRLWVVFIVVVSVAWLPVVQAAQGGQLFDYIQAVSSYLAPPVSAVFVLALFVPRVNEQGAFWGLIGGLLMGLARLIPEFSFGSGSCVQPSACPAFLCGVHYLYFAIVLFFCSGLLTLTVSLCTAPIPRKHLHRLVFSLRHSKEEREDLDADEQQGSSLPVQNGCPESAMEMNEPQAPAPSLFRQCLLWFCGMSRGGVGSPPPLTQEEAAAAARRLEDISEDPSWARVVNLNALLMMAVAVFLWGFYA

hSGLT2 [2] = target: T1, hSGLT2; assay: α-methyl glucose uptake in CHO cell expressing hSGLT2; type: cell-based; conditions: CHO cells, NaCl + 10 μM or 100 μM Phlorizin, one-hour incubation, FIG. 3

Question: Which results are given for `O=C(CCc1ccc(O)cc1)c1c(O)cc(O)cc1O[C@@H]1O[C@H](CO)[C@@H](O)[C@H](O)[C@H]1O` [phlorizin]?
Answer: inhibition of NaCl-dependent glucose uptake activity (hSGLT2 [1]): inhibited; inhibition of Na-dependent α-methyl glucose uptake activity (hSGLT2 [2]): inhibited
